Our source for the growth values is PubChem BioAssay (NCI).

The list shows a part of the results, in another mix than the full data.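 Compound tested at a single concentration for 48 hours in 96-well plates; a percent growth value below 10 was scored as active.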 Activity calls are given as the source filed them.

Some test systems named below: NCI-H23 lung; NCI-H226 lung; NCI-H322M lung; HOP-62 NSCLC; NCI-H460 lung; NCI-H522 lung; 786-0 renal; COLO 205 colon; DU-145 prostate; K-562 leukemia; MALME-3M melanoma; MDA-MB-231 breast; SF-268 CNS; SF-295 CNS; SF-539 CNS; M14 melanoma; A549/ATCC NSCLC; RXF 393 renal; UACC-257 melanoma; HOP-92 NSCLC.
What all share (assay): NCI-60 one-dose screen, 48 h (100 = growth as untreated, 0 = no growth, -100 = all killed)
Holding throughout (settings): 10 µM

With `NC(Cc1ccccc1N(CCCl)CCCl)C(=O)O` (stereo not given), the growth with NCI-H23 lung was inactive: 70%; with NCI-H226 lung, inactive: 77.4%; in the assay on NCI-H322M lung, inactive: 84%; with HOP-62 NSCLC, inactive: 77.8%; with NCI-H460 lung, inactive: 23.3%; in the assay on NCI-H522 lung it was inactive: 91%. In addition, the growth was inactive: 90.9% in the assay on 786-0 renal; inactive: 82.7% in the assay with COLO 205 colon; inactive: 86.8% in the assay with DU-145 prostate; inactive: 86.5% in the assay with K-562 leukemia; inactive: 35.2% with MALME-3M melanoma; inactive: 104% with MDA-MB-231 breast. Besides, the growth was inactive: 63.7% with SF-268 CNS, active: -10.4% in the assay on SF-295 CNS, inactive: 38% in the assay with SF-539 CNS and inactive: 81.1% in the assay with M14 melanoma.
Turning to `COc1c(C)cc(N(CCCl)CCCl)c2ccccc12`, the growth is inactive: 42.8% in the assay on NCI-H23 lung; inactive: 60.1% with NCI-H226 lung; inactive: 77.6% in the assay with NCI-H322M lung; inactive: 53.5% with HOP-62 NSCLC; inactive: 18.1% in the assay on NCI-H460 lung; inactive: 64% in the assay with NCI-H522 lung. The growth was inactive: 41.9% in the assay with A549/ATCC NSCLC; inactive: 17.3% in the assay with 786-0 renal; inactive: 62.1% with COLO 205 colon; inactive: 38% in the assay on DU-145 prostate; inactive: 63.2% with K-562 leukemia; inactive: 65.7% in the assay with MALME-3M melanoma. The growth was inactive: 105% with MDA-MB-231 breast; inactive: 58.7% in the assay with RXF 393 renal; inactive: 47.1% in the assay with SF-268 CNS; inactive: 11.2% in the assay on SF-295 CNS; inactive: 10.4% with SF-539 CNS; inactive: 62.7% in the assay on UACC-257 melanoma. Also, the growth in the assay with M14 melanoma was inactive: 46.5%.
Consider `CCNC(=O)Cc1ccc(N(CCCl)CCCl)cc1`, for which the growth in the assay with NCI-H23 lung was inactive: 88.2%; in the assay with NCI-H226 lung it was inactive: 80.6%; in the assay on NCI-H322M lung, inactive: 98.1%; in the assay on HOP-62 NSCLC, inactive: 78.6%; in the assay with NCI-H460 lung, inactive: 44.9%; with A549/ATCC NSCLC it was inactive: 74.1%. Also, the growth with 786-0 renal was inactive: 83.7%; in the assay on COLO 205 colon it was inactive: 94%; with DU-145 prostate, inactive: 86.4%; with K-562 leukemia, inactive: 84.3%; with MALME-3M melanoma, inactive: 86.2%; in the assay with MDA-MB-231 breast, inactive: 101%. Besides, the growth in the assay with RXF 393 renal was inactive: 77.1%; in the assay on SF-268 CNS it was inactive: 69.9%; in the assay with SF-295 CNS, inactive: 38.8%; in the assay on SF-539 CNS, inactive: 62.2%; with UACC-257 melanoma it was inactive: 90.5%; in the assay on M14 melanoma, inactive: 107%.
For `CC(=O)N(c1ccccc1)C1CCNCC1`, the growth is inactive: 111% in the assay on NCI-H23 lung; inactive: 103% in the assay with NCI-H226 lung; inactive: 120% with NCI-H322M lung; inactive: 108% in the assay with HOP-62 NSCLC; inactive: 112% with NCI-H460 lung; inactive: 129% with HOP-92 NSCLC. Besides, the growth is inactive: 104% with NCI-H522 lung; inactive: 112% in the assay with A549/ATCC NSCLC; inactive: 117% in the assay on 786-0 renal; inactive: 113% in the assay on COLO 205 colon; inactive: 130% in the assay with DU-145 prostate; inactive: 110% in the assay on K-562 leukemia. Further, the growth with MDA-MB-231 breast was inactive: 113%; with RXF 393 renal, inactive: 111%; in the assay on SF-268 CNS, inactive: 123%; in the assay with SF-295 CNS, inactive: 103%; with SF-539 CNS, inactive: 105%; with UACC-257 melanoma, inactive: 120%. For the same molecule, the growth in the assay on M14 melanoma is inactive: 116%.
Regarding `Fc1cccc(CBr)c1`, the growth in the assay on NCI-H23 lung is inactive: 102%; in the assay with NCI-H226 lung, inactive: 102%; with NCI-H322M lung, inactive: 93.2%; with HOP-62 NSCLC, inactive: 99.2%; in the assay with NCI-H460 lung, inactive: 108%; in the assay with HOP-92 NSCLC, inactive: 113%. Further, the growth was inactive: 108% with NCI-H522 lung; inactive: 101% in the assay with A549/ATCC NSCLC; inactive: 90.3% in the assay with 786-0 renal; inactive: 115% in the assay on COLO 205 colon; inactive: 107% in the assay on DU-145 prostate; inactive: 97% in the assay on K-562 leukemia. Further, the growth was inactive: 111% in the assay on MDA-MB-231 breast; inactive: 113% with RXF 393 renal; inactive: 92.1% in the assay with SF-268 CNS; inactive: 97.9% with SF-295 CNS; inactive: 103% with SF-539 CNS; inactive: 116% in the assay with UACC-257 melanoma. Moreover, in the assay on M14 melanoma, the growth is inactive: 102%.
Consider `CCOC(=O)c1ccc(N(CCCl)CCCl)cc1`, for which the growth is inactive: 96.9% with NCI-H226 lung; inactive: 101% in the assay on HOP-62 NSCLC; inactive: 102% in the assay on NCI-H460 lung; inactive: 80.5% with HOP-92 NSCLC; inactive: 85.5% in the assay on NCI-H522 lung; inactive: 89.9% in the assay on A549/ATCC NSCLC. In addition, the growth in the assay with 786-0 renal is inactive: 97.5%; in the assay with COLO 205 colon, inactive: 102%; in the assay with DU-145 prostate, inactive: 116%; with K-562 leukemia, inactive: 86.6%; in the assay on MALME-3M melanoma, inactive: 109%; with MDA-MB-231 breast it was inactive: 108%. For the same molecule, the growth with RXF 393 renal is inactive: 108%; in the assay on SF-268 CNS, inactive: 109%; in the assay on SF-295 CNS, inactive: 99.2%; with SF-539 CNS, inactive: 97.3%; in the assay with UACC-257 melanoma, inactive: 97.8%; with M14 melanoma, inactive: 106%.
Consider `O/N=C/c1ccc(N(CCCl)CCCl)cc1`, for which the growth in the assay with NCI-H23 lung is inactive: 89.4%; in the assay on NCI-H226 lung, inactive: 76.2%; in the assay on NCI-H322M lung, inactive: 101%; in the assay with HOP-62 NSCLC, inactive: 98.3%; in the assay with NCI-H460 lung, inactive: 54.4%; in the assay on HOP-92 NSCLC it was inactive: 104%. Besides, the growth is inactive: 75.2% in the assay with NCI-H522 lung; inactive: 83.9% in the assay on A549/ATCC NSCLC; inactive: 94.9% in the assay on 786-0 renal; inactive: 112% in the assay on COLO 205 colon; inactive: 110% in the assay on DU-145 prostate; inactive: 97.8% with K-562 leukemia. Besides, the growth was inactive: 105% in the assay on MALME-3M melanoma; inactive: 110% with MDA-MB-231 breast; inactive: 97.3% with SF-268 CNS; inactive: 72.6% with SF-295 CNS; inactive: 93.2% in the assay on SF-539 CNS; inactive: 79.9% in the assay with UACC-257 melanoma. Besides, the growth with M14 melanoma was inactive: 102%.
In the case of `CCOP(=O)(Cl)OCC`, the growth in the assay on NCI-H23 lung was inactive: 103%; in the assay with NCI-H226 lung, inactive: 103%; with NCI-H322M lung, inactive: 92.4%; in the assay on HOP-62 NSCLC it was inactive: 98.6%; in the assay on NCI-H460 lung it was inactive: 109%; in the assay on HOP-92 NSCLC, inactive: 84%. Moreover, the growth was inactive: 105% in the assay on A549/ATCC NSCLC; inactive: 104% in the assay on 786-0 renal; inactive: 112% in the assay on COLO 205 colon; inactive: 106% in the assay with DU-145 prostate; inactive: 104% in the assay on K-562 leukemia; inactive: 101% in the assay with MALME-3M melanoma. The growth was inactive: 106% in the assay with MDA-MB-231 breast; inactive: 111% in the assay on RXF 393 renal; inactive: 101% with SF-268 CNS; inactive: 77.4% with SF-295 CNS; inactive: 96.9% with SF-539 CNS; inactive: 93.5% in the assay with UACC-257 melanoma. Besides, the growth in the assay with M14 melanoma was inactive: 97.7%.
With `ClCCN(CCCl)Cc1nc2cc(Cl)c(Cl)cc2[nH]1`, the growth in the assay with NCI-H226 lung was inactive: 86.5%; with NCI-H322M lung, inactive: 117%; in the assay with HOP-62 NSCLC, inactive: 85.6%; with NCI-H460 lung, inactive: 16%; in the assay on NCI-H522 lung, inactive: 73%; in the assay on A549/ATCC NSCLC it was inactive: 60.8%. Also, the growth in the assay on 786-0 renal is inactive: 56.4%; with COLO 205 colon it was inactive: 96%; in the assay on DU-145 prostate, inactive: 61.6%; in the assay on K-562 leukemia, inactive: 61.9%; in the assay with MALME-3M melanoma it was inactive: 104%; in the assay on MDA-MB-231 breast, inactive: 112%. Besides, the growth in the assay on RXF 393 renal was inactive: 95%; in the assay with SF-268 CNS, inactive: 53.4%; with SF-295 CNS, inactive: 42.6%; in the assay with SF-539 CNS, inactive: 54.3%; in the assay on UACC-257 melanoma, inactive: 86.8%; in the assay with M14 melanoma it was inactive: 70.9%.
